Measurements published in publication PMC4369446 (2015).

T1: MART1 (wild-type peptide) peptide on HLA-A*02:01 (human)
T1 peptide: AAGIGILTV

B1: SIG35α / TRBV27 Cl.794 (TCR)
alpha TRAV12-2 J35 CDR3: CAVSIGFGNVL
beta TRBV27 TRBJ1-2 CDR3: CASSLLGDYGYTF
B2: SIG35α / TRBV27 Cl.1599 (TCR)
alpha TRAV12-2 J35 CDR3: CAVSIGFGNVL
beta TRBV27 TRBJ1-1 CDR3: CASSFLGAMAEAFF
B3: SIG35α / TRBV27 Cl.1606 (TCR)
alpha TRAV12-2 J35 CDR3: CAVSIGFGNVL
beta TRBV27 TRBJ2-7 CDR3: CASSLLGSYEQYF
B4: SIG35α / TRBV27 Cl.1574 (TCR)
alpha TRAV12-2 J35 CDR3: CAVSIGFGNVL
beta TRBV27 TRBJ1-1 CDR3: CASSPWERINTEAFF
B5: SIG35α / TRBV27 Cl.758 (TCR)
alpha TRAV12-2 J35 CDR3: CAVSIGFGNVL
beta TRBV27 TRBJ2-2 CDR3: CASSPRLAGDGELFF
B6: SIG35α / TRBV27 Cl.788 (TCR)
alpha TRAV12-2 J35 CDR3: CAVSIGFGNVL
beta TRBV27 TRBJ2-7 CDR3: CASGPSYEQYF
B7: SIG35α / TRBV27 Cl.523 (TCR)
alpha TRAV12-2 J35 CDR3: CAVSIGFGNVL
beta TRBV27 TRBJ2-7 CDR3: CASGSYEQYF
B8: SIG35α / TRBV27 Cl.413 (TCR)
alpha TRAV12-2 J35 CDR3: CAVSIGFGNVL
beta TRBV27 TRBJ1-4 CDR3: CASSVFGGDMGEKLFF
B9: SIG35α / TRBV27 Cl.1593 (TCR)
alpha TRAV12-2 J35 CDR3: CAVSIGFGNVL
beta TRBV27 TRBJ1-5 CDR3: CASGNNQPQHF
B10: SIG35α / TRBV27 Cl.1086 (TCR)
alpha TRAV12-2 J35 CDR3: CAVSIGFGNVL
beta TRBV27 TRBJ1-2 CDR3: CASSLHGPGGYTF

Target: T1, MART1 (wild-type peptide) peptide on …
Experiment: IL-2 ELISPOT
With B1 the EC50 of peptide was 160 nM.
B2 showed an EC50 of peptide of 160 nM.
B3 gave an EC50 of peptide of 120 nM.
B4 showed an EC50 of peptide of 150 nM.
Work on B5 yielded an EC50 of peptide of 460 nM.
Binder B6 has an EC50 of peptide of 570 nM.
B7 was tested, and the EC50 of peptide was 2700 nM.
In the case of B8, the EC50 of peptide is reported as 10000 nM.

Target: T1, MART1 (wild-type peptide) peptide on …
Experiment: graded A2/MART1 multimer
With B1 the EC50 of multimer was 0.06 µg/mL.
Work on B2 yielded an EC50 of multimer of 0.06 µg/mL.
Work on B3 yielded an EC50 of multimer of 0.01 µg/mL.
For B4, the EC50 of multimer was 0.1 µg/mL.
With B9 the EC50 of multimer was 0.01 µg/mL.
With B5 the EC50 of multimer was 2.7 µg/mL.
B10 was tested, and the EC50 of multimer was 0.04 µg/mL.
In the case of B6, the EC50 of multimer is reported as 0.05 µg/mL.

Target: T1, MART1 (wild-type peptide) peptide on …
Experiment: graded A2/MART1 multimer
Remark: another data set of the same source
With B1 the EC50 of multimer was 0.02 µg/mL.
Work on B2 yielded an EC50 of multimer of 0.02 µg/mL.
With B3 the EC50 of multimer was 0.006 µg/mL.
Binder B4 has an EC50 of multimer of 0.03 µg/mL.
With B9 the EC50 of multimer was 0.006 µg/mL.
B5 gave an EC50 of multimer of 0.06 µg/mL.
B10 was tested, and the EC50 of multimer was 0.01 µg/mL.
Work on B6 yielded an EC50 of multimer of 0.01 µg/mL.
With B7 the EC50 of multimer was 0.3 µg/mL.

Target: T1, MART1 (wild-type peptide) peptide on …
Experiment: IL-2 ELISPOT
Remark: another data set of the same source
With B1 the EC50 of peptide was 120 nM.
B3 showed an EC50 of peptide of 160 nM.
Binder B4 has an EC50 of peptide of 350 nM.
B9 showed an EC50 of peptide of 440 nM.
For B5, the EC50 of peptide was 1600 nM.
With B10 the EC50 of peptide was 2400 nM.
In the case of B6, the EC50 of peptide is reported as 2900 nM.
